# Molecular target: Human TASK-1 channels (Homo sapiens (Human), UniProt O14649)
# Sequences of proteins named here, by UniProt entry; tags and fusion partners are left off. A change or cut given only in a name is not applied to a line headed by its entry.
# UniProt O14649: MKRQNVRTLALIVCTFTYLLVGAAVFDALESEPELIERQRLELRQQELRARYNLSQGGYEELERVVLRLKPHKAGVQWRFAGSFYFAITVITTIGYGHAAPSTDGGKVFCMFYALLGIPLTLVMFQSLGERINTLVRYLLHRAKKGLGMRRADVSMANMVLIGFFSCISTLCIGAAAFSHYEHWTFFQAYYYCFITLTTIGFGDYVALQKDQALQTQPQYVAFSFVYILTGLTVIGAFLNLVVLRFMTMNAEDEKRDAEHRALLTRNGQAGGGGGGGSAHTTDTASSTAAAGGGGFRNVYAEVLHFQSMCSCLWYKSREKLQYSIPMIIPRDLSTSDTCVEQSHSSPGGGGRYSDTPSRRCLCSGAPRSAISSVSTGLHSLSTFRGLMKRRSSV
# Test: Activity on the TASK-1 channel in Xenopus oocytes (two-microelectrode voltage clamp)
# Format: cell-based
# Conditions: human TASK-1 expressed in Xenopus oocytes, currents during pulses to 40 mV, room temperature
# Method: Human TASK-1 channels were expressed in Xenopus oocytes. For this purpose, oocytes were isolated from Xenopus laevis and defoliculated. Subsequently, TASK-1-encoding RNA synthesized in vitro was injected into oocytes. After two days of TASK-1 protein expression, TASK-1 currents were measured by two-microelectrode voltage clamp. Data were acquired and analyzed using a TEC-10cx amplifier (NPI Electronic, Tamm, Germany) connected to an ITC-16 interface (Instrutech Corp., Long Island, USA) and Pulse software (HEKA Elektronik, Lambrecht, Germany). Oocytes were clamped to −90 mV and TASK-1 mediated currents were measured during 500 ms voltage pulses to 40 mV. Oocytes were continuously superfused with ND96 buffer containing: NaCl 96 mM, KCl 2 mM, CaCl2 1.8 mM, MgCl2 1 mM, HEPES 5 mM (pH adjusted to 7.4 with NaOH). All experiments were performed at room temperature.
# Test substances were consecutively added to the bath solution at rising concentrations. […] IC50 values were obtained by fitting the data to the general dose-response equation.
row,SMILES,IC50
1,"CCC(c1ccc(Cl)cc1)n1nc(-c2ccc(F)cc2)c2c1CCN(C(C)=O)C2 (single isomer, unassigned) [Example 6bl, 1-[1-[1-(4-Chloro-phenyl)-propyl]-3-(4-fluoro-phenyl)-1,4,6,7-tetrahydro-pyrazolo[4,3-c]pyridin-5-yl]-ethanone]",966 nM
2,"CC(c1ccc(F)cc1)n1nc(-c2ccc(F)cc2)c2c1CCN(S(C)(=O)=O)C2 (single isomer, unassigned) [Example 9b]",611 nM
3,"CC(c1ccc(F)cc1)n1nc(-c2ccc(F)cc2)c2c1CCN(S(C)(=O)=O)C2 (single isomer, unassigned) [Example 9a]",540 nM
4,"CCNC(=O)N1CCc2c(c(-c3ccc(F)cc3)nn2C(C)c2ccc(F)cc2)C1 (single isomer, unassigned) [Example 11b, 3-(4-Fluoro-phenyl)-1-[1-(4-fluoro-phenyl)-ethyl]-1,4,6,7-tetrahydro-pyrazolo[4,3-c]pyridine-5-carboxylic acid ethylamide]",1520 nM
5,"CCNC(=O)N1CCc2c(c(-c3ccc(F)cc3)nn2C(C)c2ccc(F)cc2)C1 (single isomer, unassigned) [Example 11c, 3-(4-Fluoro-phenyl)-1-[1-(4-fluoro-phenyl)-ethyl]-1,4,6,7-tetrahydro-pyrazolo[4,3-c]pyridine-5-carboxylic acid ethylamide]",1170 nM
6,"CCC(c1ccc(Cl)cc1)n1nc(-c2ccc(F)cc2)c2c1CCN(C(C)=O)C2 (single isomer, unassigned) [Example 6bm, 1-[1-[1-(4-Chloro-phenyl)-propyl]-3-(4-fluoro-phenyl)-1,4,6,7-tetrahydro-pyrazolo[4,3-c]pyridin-5-yl]-ethanone]",251 nM
